pIC50: −log10 of the molar value. Like-named read-outs stand apart in the source and are kept apart here.
Legend:
[1] = target: T1, His-BIR2 (124-240/C202A/C213G) (Homo sapiens (Human), UniProt P98170, C202A/C213G); assay: biochemical
[2] = target: T1, His-BIR2 (124-240/C202A/C213G); conditions: read-out: XIAP-BIR2 AlphaScreen IC50, Biotinylated SMAC peptide

Row | SMILES | pIC50 [1] | pIC50 [2]
1 | CN[C@@H](C)C(=O)N[C@H](C(=O)N1Cc2cc(NC(=O)CCC(=O)N[C@H]3C[C@@H](C(=O)N[C@@H]4CCCc5ccccc54)N(C(=O)[C@@H](NC(=O)[C@H](C)NC)C(C)(C)C)C3)ccc2C[C@H]1C(=O)N[C@@H]1CCCc2ccccc21)C(C)(C)C [Example 1, N^1—((S)-2-((S)-3,3-Dimethyl-2-((S)-2-(methylamino)propanamido)butanoyl)-3-(((R)-1,2,3,4-tetrahydronaphthalen-1-yl)carbamoyl)-1,2,3,4-tetrahydroisoquinolin-7-yl)-N^4-((3S,5S)-1-((S)-3,3-dimethyl-2-((S)-2-(methylamino)propanamido)butanoyl)-5-(((R)-1,2,3,4-tetrahydronaphthalen-1-yl)carbamoyl)pyrrolidin-3-yl)succinamide] | 7.02 | 
2 | CN[C@@H](C)C(=O)N[C@H](C(=O)N1Cc2cc(NC(=O)c3ccc(C(=O)N[C@H]4C[C@@H](C(=O)N[C@@H]5CCCc6ccccc65)N(C(=O)[C@@H](NC(=O)[C@@H](NC)C(C)C)C(C)(C)C)C4)cc3)ccc2C[C@H]1C(=O)N[C@@H]1CCCc2ccccc21)C(C)(C)C [Example 36, N^1-((S)-2-((S)-3,3-dimethyl-2-((S)-2-(methylamino)propanamido)butanoyl)-3-(((R)-1,2,3,4-tetrahydronaphthalen-1-yl)carbamoyl)-1,2,3,4-tetrahydroisoquinolin-7-yl)-N^4-((3S,5S)-1-((S)-3,3-dimethyl-2-((S)-3-methyl-2-(methylamino)butanamido)butanoyl)-5-(((R)-1,2,3,4-tetrahydronaphthalen-1-yl)carbamoyl)pyrrolidin-3-yl)terephthalamide] | 5.72 | 
3 | CN[C@@H](C)C(=O)N[C@H](C(=O)N1Cc2cc(NC(=O)c3cccc(CO[C@H]4C[C@@H](C(=O)N[C@@H]5CCCc6ccccc65)N(C(=O)[C@@H](NC(=O)[C@H](C)NC)C(C)(C)C)C4)c3)ccc2C[C@H]1C(=O)N[C@@H]1CCCc2ccccc21)C(C)(C)C [Example 52, (S)-2-((S)-3,3-Dimethyl-2-((S)-2-(methylamino)propanamido)butanoyl)-7-(3-((((3S,5S)-1-((S)-3,3-dimethyl-2-((S)-2-(methylamino)propanamido)butanoyl)-5-(((R)-1,2,3,4-tetrahydronaphthalen-1-yl)carbamoyl)pyrrolidin-3-yl)oxy)methyl)benzamido)-N-((R)-1,2,3,4-tetrahydronaphthalen-1-yl)-1,2,3,4-tetrahydroisoquinoline-3-carboxamide] |  | 6.44
4 | CN[C@@H](C)C(=O)N[C@H](C(=O)N1Cc2cc(NC(=O)c3ccc4ccn(C(=O)NC5C[C@@H](C(=O)NC6CCCc7ccccc76)N(C(=O)[C@@H](NC(=O)[C@H](C)NC)C(C)(C)C)C5)c4c3)ccc2C[C@H]1C(=O)NC1CCCc2ccccc21)C(C)(C)C (stereo partly drawn) [Example 53, N^6-((3S)-2-((S)-3,3-Dimethyl-2-((S)-2-(methylamino)propanamido)butanoyl)-3-((1,2,3,4-tetrahydronaphthalen-1-yl)carbamoyl)-1,2,3,4-tetrahydroisoquinolin-7-yl)-N^1-((5S)-1-((S)-3,3-dimethyl-2-((S)-2-(methylamino)propanamido)butanoyl)-5-((1,2,3,4-tetrahydronaphthalen-1-yl)carbamoyl)pyrrolidin-3-yl)-1H-indole-1,6-dicarboxamide] |  | 6.60

Reference: patent publication US9783573B2, “IAP antagonists” (BRISTOL-MYERS SQUIBB COMPANY, priority 2012, dated 2017)
